Data: US20120245137A1 (Zalicus Pharmaceuticals Ltd., priority 2009, published 2012)

Protein sequences, listed by entry. Tags and fused reporters are not part of them. Lines headed by an entry give the natural chain unless they say otherwise; changes in a name come on top.
UniProt O43497: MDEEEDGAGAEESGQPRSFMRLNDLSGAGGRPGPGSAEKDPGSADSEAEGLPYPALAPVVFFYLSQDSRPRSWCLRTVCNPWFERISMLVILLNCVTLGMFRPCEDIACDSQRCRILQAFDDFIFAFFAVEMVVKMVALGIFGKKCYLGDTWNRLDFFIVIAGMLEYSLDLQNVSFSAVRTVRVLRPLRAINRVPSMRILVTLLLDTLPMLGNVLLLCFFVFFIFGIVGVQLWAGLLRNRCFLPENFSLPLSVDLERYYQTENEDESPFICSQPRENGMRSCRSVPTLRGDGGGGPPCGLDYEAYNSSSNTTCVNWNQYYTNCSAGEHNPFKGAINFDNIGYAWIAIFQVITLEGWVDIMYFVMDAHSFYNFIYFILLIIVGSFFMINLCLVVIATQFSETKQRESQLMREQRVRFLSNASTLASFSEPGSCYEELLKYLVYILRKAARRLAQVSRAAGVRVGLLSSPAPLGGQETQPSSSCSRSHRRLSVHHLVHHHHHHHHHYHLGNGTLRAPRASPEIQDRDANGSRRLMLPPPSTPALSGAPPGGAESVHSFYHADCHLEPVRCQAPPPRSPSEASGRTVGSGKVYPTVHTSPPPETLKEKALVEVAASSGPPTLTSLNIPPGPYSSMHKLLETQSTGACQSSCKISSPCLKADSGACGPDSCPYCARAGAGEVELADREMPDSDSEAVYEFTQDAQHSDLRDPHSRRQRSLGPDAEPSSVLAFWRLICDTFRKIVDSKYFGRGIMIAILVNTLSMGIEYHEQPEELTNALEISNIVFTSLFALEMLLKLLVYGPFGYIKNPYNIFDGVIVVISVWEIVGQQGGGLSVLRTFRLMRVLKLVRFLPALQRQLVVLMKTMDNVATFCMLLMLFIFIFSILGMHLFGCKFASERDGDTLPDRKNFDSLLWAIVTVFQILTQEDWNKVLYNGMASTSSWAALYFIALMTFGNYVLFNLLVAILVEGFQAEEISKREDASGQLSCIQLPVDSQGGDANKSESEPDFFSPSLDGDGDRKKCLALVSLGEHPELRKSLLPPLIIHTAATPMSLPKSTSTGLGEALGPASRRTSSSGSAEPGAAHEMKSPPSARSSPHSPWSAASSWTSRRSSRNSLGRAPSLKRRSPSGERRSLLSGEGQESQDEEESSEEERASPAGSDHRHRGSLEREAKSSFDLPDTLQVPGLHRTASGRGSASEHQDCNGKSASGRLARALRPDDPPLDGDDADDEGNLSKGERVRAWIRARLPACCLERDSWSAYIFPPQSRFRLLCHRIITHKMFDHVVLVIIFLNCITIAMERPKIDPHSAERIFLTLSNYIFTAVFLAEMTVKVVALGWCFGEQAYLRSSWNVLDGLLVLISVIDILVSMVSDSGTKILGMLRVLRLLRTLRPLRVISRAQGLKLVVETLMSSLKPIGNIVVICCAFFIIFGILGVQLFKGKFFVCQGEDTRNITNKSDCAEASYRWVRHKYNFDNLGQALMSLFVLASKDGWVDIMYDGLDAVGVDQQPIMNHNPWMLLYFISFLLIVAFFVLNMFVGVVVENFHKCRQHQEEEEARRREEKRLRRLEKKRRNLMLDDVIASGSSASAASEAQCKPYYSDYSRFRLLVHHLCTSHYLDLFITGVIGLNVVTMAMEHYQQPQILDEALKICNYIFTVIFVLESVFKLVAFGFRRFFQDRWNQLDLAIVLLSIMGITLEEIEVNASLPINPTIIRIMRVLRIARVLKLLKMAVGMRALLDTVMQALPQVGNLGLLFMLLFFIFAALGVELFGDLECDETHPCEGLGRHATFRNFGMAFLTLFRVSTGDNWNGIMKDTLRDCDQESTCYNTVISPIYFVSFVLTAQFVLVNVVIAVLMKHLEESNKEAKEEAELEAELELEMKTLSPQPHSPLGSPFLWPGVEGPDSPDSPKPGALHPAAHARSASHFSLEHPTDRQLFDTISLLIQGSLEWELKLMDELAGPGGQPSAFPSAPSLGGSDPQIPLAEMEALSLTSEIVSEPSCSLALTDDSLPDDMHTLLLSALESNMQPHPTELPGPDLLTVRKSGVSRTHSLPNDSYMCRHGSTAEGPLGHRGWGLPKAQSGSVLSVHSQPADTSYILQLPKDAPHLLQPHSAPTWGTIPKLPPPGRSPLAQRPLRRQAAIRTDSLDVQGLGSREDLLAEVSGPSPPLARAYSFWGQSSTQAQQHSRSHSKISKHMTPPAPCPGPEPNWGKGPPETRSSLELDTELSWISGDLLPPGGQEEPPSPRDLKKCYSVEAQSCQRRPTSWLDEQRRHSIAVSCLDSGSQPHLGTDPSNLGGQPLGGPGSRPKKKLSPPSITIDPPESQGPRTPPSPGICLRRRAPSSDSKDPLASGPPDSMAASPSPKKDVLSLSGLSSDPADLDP
UniProt O95180: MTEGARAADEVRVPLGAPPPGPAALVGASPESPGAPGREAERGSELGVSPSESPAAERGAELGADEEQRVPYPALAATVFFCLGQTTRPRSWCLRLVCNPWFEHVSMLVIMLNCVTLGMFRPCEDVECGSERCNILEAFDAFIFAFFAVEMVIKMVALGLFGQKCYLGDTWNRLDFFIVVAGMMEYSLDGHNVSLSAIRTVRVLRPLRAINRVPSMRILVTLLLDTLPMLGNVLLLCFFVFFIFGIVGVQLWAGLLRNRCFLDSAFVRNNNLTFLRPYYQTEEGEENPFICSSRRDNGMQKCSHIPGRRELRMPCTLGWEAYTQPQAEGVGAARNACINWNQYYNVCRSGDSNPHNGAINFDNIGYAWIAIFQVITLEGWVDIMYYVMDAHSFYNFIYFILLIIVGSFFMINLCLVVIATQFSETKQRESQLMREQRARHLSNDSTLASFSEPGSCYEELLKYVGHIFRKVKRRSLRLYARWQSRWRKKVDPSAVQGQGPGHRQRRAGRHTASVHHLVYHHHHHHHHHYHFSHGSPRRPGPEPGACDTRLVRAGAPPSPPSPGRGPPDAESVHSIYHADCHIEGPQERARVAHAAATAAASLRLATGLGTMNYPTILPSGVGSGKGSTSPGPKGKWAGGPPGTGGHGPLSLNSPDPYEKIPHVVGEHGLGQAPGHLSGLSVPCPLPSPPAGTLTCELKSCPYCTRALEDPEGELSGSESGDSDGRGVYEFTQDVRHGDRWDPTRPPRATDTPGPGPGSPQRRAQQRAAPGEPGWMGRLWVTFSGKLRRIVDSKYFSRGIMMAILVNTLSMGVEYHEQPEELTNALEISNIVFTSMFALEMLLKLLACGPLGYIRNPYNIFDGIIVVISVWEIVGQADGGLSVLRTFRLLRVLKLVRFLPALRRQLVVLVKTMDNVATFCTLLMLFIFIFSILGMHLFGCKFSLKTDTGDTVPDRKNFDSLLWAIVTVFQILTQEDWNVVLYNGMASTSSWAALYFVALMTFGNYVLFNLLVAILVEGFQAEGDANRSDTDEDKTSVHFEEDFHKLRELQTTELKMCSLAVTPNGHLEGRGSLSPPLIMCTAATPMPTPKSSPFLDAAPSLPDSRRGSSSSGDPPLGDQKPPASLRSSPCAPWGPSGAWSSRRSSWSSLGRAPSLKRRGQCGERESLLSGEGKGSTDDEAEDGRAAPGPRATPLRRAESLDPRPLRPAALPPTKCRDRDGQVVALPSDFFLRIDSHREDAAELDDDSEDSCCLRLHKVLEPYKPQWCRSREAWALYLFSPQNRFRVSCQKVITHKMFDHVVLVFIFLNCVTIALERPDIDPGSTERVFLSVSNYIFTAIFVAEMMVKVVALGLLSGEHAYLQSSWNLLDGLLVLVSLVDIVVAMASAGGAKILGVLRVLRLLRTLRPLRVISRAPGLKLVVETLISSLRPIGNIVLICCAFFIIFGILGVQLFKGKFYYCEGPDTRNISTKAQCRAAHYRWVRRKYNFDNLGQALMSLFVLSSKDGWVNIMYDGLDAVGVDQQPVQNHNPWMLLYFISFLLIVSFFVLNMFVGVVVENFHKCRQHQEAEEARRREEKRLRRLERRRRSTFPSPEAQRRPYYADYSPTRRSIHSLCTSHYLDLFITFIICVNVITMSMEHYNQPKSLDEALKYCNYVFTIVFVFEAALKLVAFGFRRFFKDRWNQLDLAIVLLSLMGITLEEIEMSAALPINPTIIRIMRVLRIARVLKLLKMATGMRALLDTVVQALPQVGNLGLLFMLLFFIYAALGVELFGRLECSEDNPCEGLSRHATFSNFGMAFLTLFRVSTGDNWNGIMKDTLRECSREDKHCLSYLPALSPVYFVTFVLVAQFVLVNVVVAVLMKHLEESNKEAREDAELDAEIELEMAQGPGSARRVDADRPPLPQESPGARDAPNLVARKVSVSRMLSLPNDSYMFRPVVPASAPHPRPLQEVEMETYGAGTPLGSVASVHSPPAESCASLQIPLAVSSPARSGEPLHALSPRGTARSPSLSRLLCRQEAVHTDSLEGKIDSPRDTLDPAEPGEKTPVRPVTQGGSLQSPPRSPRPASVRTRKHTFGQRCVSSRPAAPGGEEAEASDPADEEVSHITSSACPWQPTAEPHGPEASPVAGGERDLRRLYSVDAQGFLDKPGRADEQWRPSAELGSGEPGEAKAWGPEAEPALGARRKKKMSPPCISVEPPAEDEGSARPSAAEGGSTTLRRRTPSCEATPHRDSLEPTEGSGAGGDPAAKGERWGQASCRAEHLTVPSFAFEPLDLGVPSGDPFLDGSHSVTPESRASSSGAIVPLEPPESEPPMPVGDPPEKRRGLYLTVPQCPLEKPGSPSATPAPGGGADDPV

What was measured:
[1] = target: human α1G T-type channels (Homo sapiens, UniProt O43497); assay: T-type calcium channel block, whole cell patch clamp, α1G; type: cell-based; conditions: HEK cells stably expressing human α1G; mainly non-inactivated protocol; values above 10,000 nM represented as 10000
Procedure: (§1) T-type calcium channel blocking activity was assayed in human embryonic kidneycells, HEK 293 (Invitrogen), stably transfected with the T-type calcium channel subunits. Briefly, cells were cultured in Dulbecco's modified eagle medium (DMEM) supplemented with 10% fetal bovine serum, 200 U/ml penicillin, and 0.2 mg/mL streptomycin at 37° C. with 5% CO2. At 85% confluency, cells were split with 0.25% trypsin/1 mM EDTA and plated at 10% confluency on glass coverslips. At 12 hours, the medium was replaced, and the cells stably transfected using a standard calcium phosphate protocol and the appropriate calcium channel cDNA's. Fresh DMEM was supplied, and the cells transferred to 28° C./5% CO2.
(§2) Standard patch-clamp techniques were employed to identify blockers of T-type currents. Briefly, previously described HEK cell lines stably expressing human α1G, α1H, and α1I T-type channels were used for all the recordings (passage #: 4-20, 37° C., 5% CO2). Whole cell patch clamp experiments were performed using an Axopatch 200B amplifier (Axon Instruments, Burlingame, Calif.) linked to a personal computer equipped with pCLAMP software. Data were analyzed using Clampfit (Axon Instruments) and SigmaPlot 4.0 (Jandel Scientific). […]

[2] = target: human α1H T-type channels (Homo sapiens, UniProt O95180); assay: T-type calcium channel block, whole cell patch clamp, α1H; type: cell-based; conditions: HEK cells stably expressing human α1H; mainly non-inactivated protocol; values above 10,000 nM represented as 10000
Procedure: as §1, §2

2-(methylsulfonyl)-6-(trifluoromethyl)- N-(((1S,3S)-3- (3-(trifluoromethyl) phenylsulfonyl)cyclobutyl) methyl)nicotinamide [Compound 382]
IC50 [1]: > 10 µM
IC50 [2]: > 10 µM
